Test system: subjects with primary osteoarthritis of the knee
Experiment: 12-week randomized controlled trial: safety (adverse events, laboratory parameters, ocular examination)
Format: in vivo, human
Conditions: normal at baseline to above upper limit of normal
Method: Study Design: Eligible subjects were stratified by the investigator at baseline into stratum 1 (no pain and normal radiological examination in the non-study knee) or stratum 2 (pain and/or abnormal radiological examination in the non-study knee), and then randomized into the trial by receiving the next numbered study kit at that clinic for that stratum. […] Subjects applied 40 drops of solution (approximately 1.2 mL) around the entire circumference of the study knee, without massage, 4 times daily, and took one study tablet daily for up to 12 weeks.
Each subject completed a full efficacy assessment questionnaire after randomization at baseline and at 4, 8 and 12 weeks, or at drop out. […] The POHA asked the question, “Considering all the ways your osteoarthritic (study) knee and its treatment affect you, including both positive and negative effects, how would you rate your overall state of health in the past 48 hours?” Secondary efficacy variables were WOMAC stiffness and patient global assessment (“PGA”) of knee osteoarthritis. The PGA asked the question, “How has the osteoarthritis in your study joint been over the last 48 hours?” The POHA and PGA were scored on a 5-point Likert scale. There was no assessment of the non-treated knee. […] Adverse events were categorized according to Coding Symbols for Thesaurus of Adverse Reaction Terms (“COSTART”). […]

How did the “AST, normal to abnormal” value turn out when `O=C(O)Cc1ccccc1Nc1c(Cl)cccc1Cl` [ODiclo, diclofenac] was run?
Its value is 27 (19.6) N (%).

Reference: US20200352886A1, “TREATMENT OF PAIN WITH TOPICAL DICLOFENAC” (priority 2009, published 2020)
